This test addresses Cholinesterase (Homo sapiens, UniProt P06276). The test can be described thus: Inhibition of human serum BChE using S-Butyrylthiocholine iodide as substrate preincubated for 15 mins followed by substrate addition by Ellman's method. The method, boiled down: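 Ellman assay in phosphate buffer pH 8.0 (0.08 M Na₂HPO₄/0.02 M NaH₂PO₄). hAChE at 0.004 U/mL or hBChE at 0.002 U/mL was preincubated with compound for 15 min at 37 °C. DTNB and ATC (hAChE) or BTC (hBChE) were added, each 50 µM final. A412 was read over 5 min and inhibition set against no-compound wells. IC50 from a variable-slope fit, mean ± SD of three independent experiments.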
On the technique in general: Ellman's reagent forms a yellow product with free thiols.

Amino acid sequences for entries named in this document (tags omitted).
UniProt P06276, whole entry: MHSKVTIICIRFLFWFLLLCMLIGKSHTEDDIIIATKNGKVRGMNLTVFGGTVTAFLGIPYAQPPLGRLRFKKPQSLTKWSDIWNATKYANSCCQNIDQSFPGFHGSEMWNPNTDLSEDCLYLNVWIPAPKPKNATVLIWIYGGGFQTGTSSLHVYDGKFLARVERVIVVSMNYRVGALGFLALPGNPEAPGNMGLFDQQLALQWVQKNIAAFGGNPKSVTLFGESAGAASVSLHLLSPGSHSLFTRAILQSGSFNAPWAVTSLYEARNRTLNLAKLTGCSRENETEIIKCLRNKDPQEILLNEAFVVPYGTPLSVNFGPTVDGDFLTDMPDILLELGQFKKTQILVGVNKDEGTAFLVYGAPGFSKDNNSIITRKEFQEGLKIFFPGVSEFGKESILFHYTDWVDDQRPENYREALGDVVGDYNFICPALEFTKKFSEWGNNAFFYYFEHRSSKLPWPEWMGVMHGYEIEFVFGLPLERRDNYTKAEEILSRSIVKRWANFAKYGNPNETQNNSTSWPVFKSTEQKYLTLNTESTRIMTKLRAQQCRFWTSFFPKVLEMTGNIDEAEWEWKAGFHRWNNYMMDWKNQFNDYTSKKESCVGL

This is an account of results in ChEMBL document CHEMBL3868624, “Design, synthesis, biological evaluation, and molecular modeling studies of chalcone-rivastigmine hybrids as cholinesterase inhibitors” (Bioorg Med Chem, 2017).

In general, IC50 refers to the concentration needed to halve the response being measured. Regarding `CCN(C)C(=O)Oc1cccc([C@H](C)N(C)C)c1` [RIVASTIGMINE], the IC50 is 380 nM.
